Earlier results on one molecule are cited in patent US6340703B1, “Treatment or prevention of osteoporosis” (Novogen, Inc., priority 1997, dated 2002).

The data set has as its system estrogen receptors. The settings on record: relative to 17p-estradiol 100; cited from earlier work.

For the molecule `O=c1c(-c2ccc(O)cc2)coc2cc(O)cc(O)c12` [genistein, reference compound], the relative estrogenicity is on record as 1.3.
